The test concerns the target recombinant rat Nln (Rattus norvegicus, UniProt P42676). The test can be described thus: Nln activation, continuous quenched fluorescence substrate. It is filed as biochemical.

Amino acid sequences for entries named in this document (tags omitted). Residues count along the entry.
UniProt P42676, 38-704: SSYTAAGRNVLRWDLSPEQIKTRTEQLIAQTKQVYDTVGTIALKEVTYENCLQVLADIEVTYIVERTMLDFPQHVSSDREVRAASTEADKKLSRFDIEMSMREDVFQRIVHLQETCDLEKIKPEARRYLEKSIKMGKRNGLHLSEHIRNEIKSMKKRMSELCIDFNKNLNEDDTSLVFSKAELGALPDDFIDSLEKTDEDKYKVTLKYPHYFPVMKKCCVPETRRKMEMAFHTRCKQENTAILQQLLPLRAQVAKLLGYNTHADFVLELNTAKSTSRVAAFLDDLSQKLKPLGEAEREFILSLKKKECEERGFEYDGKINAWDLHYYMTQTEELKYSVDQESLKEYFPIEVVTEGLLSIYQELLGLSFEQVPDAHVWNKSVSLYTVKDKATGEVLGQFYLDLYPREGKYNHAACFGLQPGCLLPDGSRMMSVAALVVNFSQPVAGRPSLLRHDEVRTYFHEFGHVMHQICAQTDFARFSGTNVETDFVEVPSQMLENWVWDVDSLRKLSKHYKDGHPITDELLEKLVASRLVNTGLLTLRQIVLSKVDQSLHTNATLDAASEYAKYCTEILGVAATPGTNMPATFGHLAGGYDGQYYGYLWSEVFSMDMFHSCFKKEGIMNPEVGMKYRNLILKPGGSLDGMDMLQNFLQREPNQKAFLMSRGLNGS

pEC50: −log10 of the molar value.

In the case of `COc1cccc(CCNC(=O)[C@@H](N)Cc2c[nH]cn2)c1` [Compound 4i, (S)-2-Amino-3-(1H-imidazol-4-yl)-N-(3-methoxyphenethyl)-propanamide], the negative logarithm of the EC50 (pEC50) was 4.52.

As a reminder, the pEC50 is the negative decadic logarithm of the EC50, by convention in mol/L.

Values taken from article PMC9295256 (Journal of medicinal chemistry, 2021).
